Measured values: patent US20150283271A1, “METHOD FOR MIMICKING HUMAN CLINICAL TRIAL BY USING NON-HUMAN ANIMALS” (Crown Bioscience Inc. (Taicang), priority 2014, published 2015)

Tested on: 20 PDXs derived from 20 patients suffered from metastatic non-small cell lung cancer
Test: Mouse clinical trial (MCT/HuTrial) of 20 PDXs with 10:10 design, Progression-Free Survival
Format: in vivo
Conditions: BALB/c nude mice with NSCLC PDX; 40 mg/kg iv every day x 49; PFS = time from dosing start until tumor volume reaches 800 cm^3; SPSS 20, p<0.05
Description: Based on the modified formula and preliminary experiment, the inventor designs a MCT. In the MCT design, α is set as 0.01, power of statistic is set as 0.99. According to the MCT design that the amount of the mice in the control group equates to that in the treatment group, P1 is 1/2 and P2 is 1/2. Based on the preliminary experiment and the predicted hazard of the texted agent, ρ is 0.3 and the hazard ratio is 0.65. Through the above formula, the K is calculated as 363. In view of that some mice may be censored during the MCT or some mice may never reach the end point during the MCT, the total amount of mice is set as 400. Based on the MCT design, both of the number of the mice in the control group and treatment group are 200. Considering 20 PDXs are required, 10 mice in the control group and 10 mice in the treatment group are grafted with each PDX. Therefore, MCT is a MCT of 20 PDXs with 10:10.
Species: Mus Musculus; Age: 6-8 weeks; Sex: female; Body Weight (at treatment initiation): 18-20 g; Animal supplier: Beijing HFK Bio-technology Co. Ltd.
Cetuximab®, an epidermal growth factor receptor (EGFR) inhibitor used for the treatment of metastatic colorectal cancer, metastatic non-small cell lung cancer marked by Bristol-Myers Squibb. […]
The tumor volume will be monitored regularly before randomization. […]
Tumor size will be measured by caliper twice weekly in two dimensions. […]

Cetuximab
Progression-Free Survival (PFS), treatment group versus vehicle group, statistical result: statistically significant
